# Source: patent US20220041681A1 (MEDIMMUNE LIMITED, priority 2016, published 2022)
# Assays:
# [1] = system: overweight or obese subjects with type 2 diabetes mellitus (T2DM); test: Multiple-ascending dose study Part II (Cohorts 5 and 6); format: in vivo, human
# Protocol: A randomized, double-blind, multiple-ascending dose study is performed. This study consists of 2 cohorts: cohort 5 and cohort 6. […] Cohorts 5 and 6 have approximately 32 subjects total and are run in parallel.
# The study consists of an inpatient up-titration evaluation period beginning on Day 3 for both Cohorts 5 and 6 and an outpatient follow-up period. The first 4 days and the final day of dosing at 300 μg are inpatient.
# Subjects are admitted to the clinic as described in Example 5 for Cohorts 1-4. […] Subjects have a second inpatient period for the initiation of the 300 μg dose ending on the fourth day at that dose followed by at-home self administration.
# Additional time points include before commencing the 300 μg dose (Day 16 for Cohort 5 and Day 11 for Cohort 6), and at the end of dosing (Day 22 for Cohort 5 and Day 17 for Cohort 6). The MMT are performed as described in Example 5.
# [2] = system: overweight or obese subjects with type 2 diabetes mellitus (T2DM); test: Phase 1/2 multiple-ascending dose study Part I (Cohorts 1-4)
structure (smiles),measurement,setting,value
CCCCCCCCCCCCCCCC(=O)N[C@@H](CCC(=O)NCCCC[C@H](NC(=O)[C@H](CC(=O)O)NC(=O)[C@H](CO)NC(=O)C(NC(=O)[C@H](Cc1ccccc1)NC(=O)C(NC(=O)CNC(=O)[C@H](CCC(N)=O)NC(=O)[C@H](CO)NC(=O)[C@@H](N)Cc1cnc[nH]1)[C@@H](C)O)[C@@H](C)O)C(=O)N[C@@H](CO)C(=O)N[C@@H](CCC(=O)O)C(=O)N[C@@H](Cc1ccc(O)cc1)C(=O)N[C@@H](CC(C)C)C(=O)N[C@@H](CC(=O)O)C(=O)N[C@@H](CO)C(=O)N[C@@H](CCC(=O)O)C(=O)N[C@@H](CCCNC(=N)N)C(=O)N[C@@H](C)C(=O)N[C@@H](CCCNC(=N)N)C(=O)N[C@@H](CC(=O)O)C(=O)N[C@@H](Cc1ccccc1)C(=O)N[C@H](C(=O)N[C@@H](C)C(=O)N[C@@H](Cc1c[nH]c2ccccc12)C(=O)N[C@@H](CC(C)C)C(=O)N[C@@H](CCC(=O)O)C(=O)N[C@@H](C)C(=O)NCC(=O)NCC(=O)O)C(C)C)C(=O)O (some centres unmarked) [Peptide G933],patients reporting nausea,"[1]; Cohort 5, 3 patients",27.3%
same,patients reporting vomiting,"[1]; Cohort 5, 3 patients",27.3%
same,patients reporting nausea,"[1]; Cohort 6, 5 patients",41.7%
same,patients with decreased appetite,"[2]; Cohort 3, six patients",85.7%
same,increase in heart rate,"[2]; Cohort 4, Day 13",12.8 bpm
same,patients with nausea,"[2]; Cohorts 1-3, 6 patients",31.6%
same,patients with cardiac adverse events,"[2]; Cohorts 1-3, seven patients",36.8%
same,patients with gastrointestinal (GI) adverse events,"[2]; Cohorts 1-3, thirteen patients",68.4%
